The list shows a part of the results, in another mix than the full data. Active and inactive are the calls of the source.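 How the source made its calls: active means mean inhibition over triplicate wells above a set limit taken from the primary lipase screen (cut at about 34% in these data); inactive means the rest.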
Target: Diacylglycerol lipase-beta (Homo sapiens) (UniProt Q8NCG7)
Test: human DAGLB lipase activity inhibition – biochemical, fluorescence, HEK293T membranes, confirmation (AID 504445);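 further: 0% = DAGLB with DMSO and 100% = wells lacking DAGLB enzyme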
Conditions: HEK293T DAGLB membrane lysate, EnzChek fluorogenic substrate; at 5.17 µM; stronger effect = higher value

By UniProt entry, the sequences of proteins in these tests, tags left out. Where a name states a change or a piece, a line headed by the entry shows the natural chain unless it says otherwise.
UniProt Q8NCG7: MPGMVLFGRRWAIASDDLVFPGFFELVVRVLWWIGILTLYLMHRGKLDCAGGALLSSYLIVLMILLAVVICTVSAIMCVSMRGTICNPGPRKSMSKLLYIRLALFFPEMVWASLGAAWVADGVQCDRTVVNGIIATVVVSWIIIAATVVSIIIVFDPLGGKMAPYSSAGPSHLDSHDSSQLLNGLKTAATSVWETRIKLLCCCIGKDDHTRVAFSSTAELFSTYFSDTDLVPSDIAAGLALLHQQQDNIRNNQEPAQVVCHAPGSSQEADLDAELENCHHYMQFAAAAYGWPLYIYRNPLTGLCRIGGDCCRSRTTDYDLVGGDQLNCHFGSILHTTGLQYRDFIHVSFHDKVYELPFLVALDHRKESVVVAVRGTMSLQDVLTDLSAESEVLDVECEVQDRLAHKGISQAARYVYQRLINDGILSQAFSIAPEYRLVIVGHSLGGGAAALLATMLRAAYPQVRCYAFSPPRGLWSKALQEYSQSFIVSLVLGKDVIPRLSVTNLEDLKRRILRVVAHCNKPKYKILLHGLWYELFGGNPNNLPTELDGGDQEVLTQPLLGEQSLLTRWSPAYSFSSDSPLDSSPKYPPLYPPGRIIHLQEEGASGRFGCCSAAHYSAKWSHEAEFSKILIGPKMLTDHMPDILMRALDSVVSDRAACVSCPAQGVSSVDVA

With `O=[N+]([O-])c1ccc(-c2cc([N+](=O)[O-])c(O)c([N+](=O)[O-])c2)cc1` as the compound, how does the inhibition read?
The inhibition was active: 66.3%.

From PubChem BioAssay AID504445 (The Scripps Research Institute Molecular Screening Center, 2011)
